{"source": "PubChem BioAssay AID743398", "about": "(Broad Institute, 2014)", "note": "This is a selection; strong and weak results do not stand in their true shares. Some salts or complexes appear as unconnected parts, following the source record. Active and inactive are the calls of the source. No stated cut-off is given here; in the data, active means activation above about 30% (passing the limit was not always enough); inconclusive means no clear call, values can overlap the other calls.", "data": [{"experiment": "activation of beta-catenin signaling reporter – cell-based, plate reader, single point, primary screen (AID 743398);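 further: 0% = neutral control wells and 100% = positive control wells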", "conditions": "Wnt/beta-catenin reporter cell assay, activator, at 9.35 µM, active compounds read high", "values": [{"smiles": "Cc1ccccc1NP(C)(=O)Nc1ccccc1C", "activation": "inactive: -0.891%"}, {"smiles": "CP(=O)(Nc1ccc(SC(F)(F)F)cc1)Oc1ccc(F)cc1", "note": "(stereo not drawn)", "activation": "inactive: -0.704%"}, {"smiles": "CCOP(=O)(CC)OCC", "activation": "inactive: 1.77%"}, {"smiles": "CCOP(C)(=S)SCC(=O)NC(C)(CC)C(=O)O", "note": "(stereo not drawn)", "activation": "inactive: -1.01%"}, {"smiles": "Cc1cc(-c2cccc3ccccc23)c(C)cn1.O=[N+]([O-])c1cc([N+](=O)[O-])c(O)c([N+](=O)[O-])c1", "activation": "inactive: 2.02%"}, {"smiles": "O=[N+]([O-])c1cc([N+](=O)[O-])c(NCC2CCS(=O)(=O)C2)c([N+](=O)[O-])c1", "note": "(stereo not drawn)", "activation": "inactive: 21.9%"}, {"smiles": "O=[N+]([O-])c1ccc(OP2(=O)COCCO2)cc1", "note": "(stereo not drawn)", "activation": "inactive: -1.37%"}, {"smiles": "Cc1c(C(c2ccc3c(c2)OCO3)c2c(C)n(C)n(-c3ccccc3)c2=O)c(=O)n(-c2ccccc2)n1C.O=[N+]([O-])c1cc([N+](=O)[O-])c(O)c([N+](=O)[O-])c1", "activation": "inactive: 1.88%"}, {"smiles": "COc1ccc(OP(C)(=O)Nc2cccc(Br)c2)cc1", "note": "(stereo not drawn)", "activation": "inactive: -4.2%"}, {"smiles": "COc1ccc(NP(C)(=O)Oc2ccccc2OC)cc1", "note": "(stereo not drawn)", "activation": "inactive: -0.362%"}, {"smiles": "Cc1c([N+](=O)[O-])cc([N+](=O)[O-])c(Br)c1[N+](=O)[O-]", "activation": "inactive: -2%"}, {"smiles": "CCCCCOc1ccc(NP(C)(=O)Oc2ccc(Cl)cc2Cl)cc1", "note": "(stereo not drawn)", "activation": "inactive: 0.347%"}, {"smiles": "O=[N+]([O-])c1cc([N+](=O)[O-])c(OC2CCCCC2O)c([N+](=O)[O-])c1", "note": "(stereo not drawn)", "activation": "inactive: 0.363%"}, {"smiles": "CP(=O)(Nc1ccccc1)Oc1ccc(F)cc1", "note": "(stereo not drawn)", "activation": "inactive: -6.6%"}, {"smiles": "COc1ccc(OP(C)(=O)Nc2ccc(SC(F)(F)F)cc2)cc1", "note": "(stereo not drawn)", "activation": "inactive: -1.15%"}, {"smiles": "CCOC(=O)c1ccc(NP(C)(=O)Oc2ccc(F)cc2)cc1", "note": "(stereo not drawn)", "activation": "inactive: -2.21%"}, {"smiles": "O=C(OCCN1CCN(CCOCc2ccccc2)CC1)C(O)(c1ccccc1)c1ccccc1", "activation": "inactive: -1.72%"}, {"smiles": "O=C(OC1CN2CCC1CC2)c1ccc([N+](=O)[O-])cc1", "note": "(stereo not drawn)", "activation": "inactive: -0.157%"}, {"smiles": "COc1ccc2c(c1O)-c1c(O)c(OC)cc3c1[C@H](C2)[N+](C)(C)CC3.O=[N+]([O-])c1cc([N+](=O)[O-])c([O-])c([N+](=O)[O-])c1[O-]", "activation": "inactive: 12.1%"}, {"smiles": "O=[N+]([O-])c1cc([N+](=O)[O-])c(Nc2ccc(Cl)cc2)c([N+](=O)[O-])c1", "activation": "inactive: -5.94%"}, {"smiles": "CC(C)c1ccc(OP(C)(=O)Nc2ccc(SC(F)(F)F)cc2)cc1", "note": "(stereo not drawn)", "activation": "inactive: -2.52%"}, {"smiles": "CP(=O)(Nc1ccccc1F)Oc1ccccc1", "note": "(stereo not drawn)", "activation": "inactive: -1.27%"}, {"smiles": "Cc1c(NP(C)(=O)Oc2ccc(C(C)C)cc2)c(=O)n(-c2ccccc2)n1C", "note": "(stereo not drawn)", "activation": "inactive: -1.62%"}]}]}
